Target: yeast α-glucosidase (Saccharomyces cerevisiae, UniProt P53341)
Assay: α-glucosidase enzyme inhibitory activity
Type: biochemical
Conditions: at 250 μg/mL, Fig. 6

By UniProt entry, the sequences of proteins in these tests, tags left out. Where a name states a change or a piece, a line headed by the entry shows the natural chain unless it says otherwise.
UniProt P53341: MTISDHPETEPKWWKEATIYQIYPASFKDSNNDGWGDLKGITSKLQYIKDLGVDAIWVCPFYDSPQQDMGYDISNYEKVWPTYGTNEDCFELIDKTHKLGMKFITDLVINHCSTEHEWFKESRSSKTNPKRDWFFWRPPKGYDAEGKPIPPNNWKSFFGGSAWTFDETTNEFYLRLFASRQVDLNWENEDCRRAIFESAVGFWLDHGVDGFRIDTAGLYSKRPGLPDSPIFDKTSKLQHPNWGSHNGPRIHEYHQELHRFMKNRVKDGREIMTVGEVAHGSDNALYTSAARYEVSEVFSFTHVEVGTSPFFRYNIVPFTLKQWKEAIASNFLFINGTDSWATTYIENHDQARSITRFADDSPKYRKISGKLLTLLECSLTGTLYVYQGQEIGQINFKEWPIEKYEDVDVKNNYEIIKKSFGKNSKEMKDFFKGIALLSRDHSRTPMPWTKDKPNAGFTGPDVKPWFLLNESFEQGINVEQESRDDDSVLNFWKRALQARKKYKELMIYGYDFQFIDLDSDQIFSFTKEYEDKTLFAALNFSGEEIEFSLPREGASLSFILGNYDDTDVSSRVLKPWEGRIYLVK

C[C@H]1O[C@H](O[C@H]2[C@H](O)[C@@H](O)[C@@H](O[C@H]3[C@H](O)[C@@H](O)C(O)O[C@@H]3CO)O[C@@H]2CO)[C@H](O)[C@@H](O)[C@@H]1N[C@H]1C=C(CO)[C@@H](O)[C@H](O)[C@H]1O (stereo partly shown) [Acarbose, reference compound]
α-glucosidase percentage inhibition: did not exhibit statistically significant differences
